{"source": "patent US11576873B2", "about": "“Compositions for the treatment of drug-resistant tumors and methods of use thereof” (THE CURATORS OF THE UNIVERSITY OF MISSOURI, priority 2017, dated 2023)", "key": {"H820 and HCC827": {"system": "H820 and HCC827", "test": "72 h cell viability analysis of Cetuximab antibody", "type": "cell-based", "details": "H820 versus HCC827", "protocol": "FIG. 41A-C. FIG. 41A, 41B, and 42C show 72 h cell viability analysis of: (A) DMSO and Transit-X2 in H820, (B) Cetuximab antibody in H820 and HCC827, and (C) siRNA in H820.\nDrug treatment and pathway inhibition were combined and the effect of drug resensitization in cells was determined. The required concentration of DMSO and transfection agent needed for drug and siRNA treatments was first optimized by testing their toxicity in H820 cells (FIG. 41). Additionally, cells were checked for sensitivity to anti-EGFR antibody (Cetuximab). […] Next it was established that siRNA alone had no effect on multiple cell lines (FIG. 41)."}, "[1]": {"test": "Physicochemical properties of gelatin NP constructs (TEM, DLS size, zeta potential)"}, "FN14": {"system": "FN14", "test": "Protein analysis of mice tumor tissues, FN14", "type": "in vivo", "details": "A549 xenograft, with erlotinib, compared to controls", "protocol": "(§1) To confirm the downregulation of AXL-FN14 in tumors, protein analysis was performed on the tumor tissues."}, "[2]": {"system": "luciferase expressing A549 xenograft tumors", "test": "Tumor size by fluorescence imaging in mice with A549 xenografts", "type": "in vivo", "details": "injected intraperitoneally, along with erlotinib, third treatment day, compared to nanoparticle devoid of siRNA", "protocol": "FIG. 49A-D. FIG. 49A, 49B, 49C, and 49D show (A,C) Total fluorescence measured from tumors and (B,D) mean fluorescence measured from tumors. IT/IP/IV+ER represent dual-siRNA construct treatments. Results were averaged from 5 mice. *p≤0.05, and the normalized percentage differences between day 17 and day 20 values were analyzed using one-way anova.\nIn order to translate the in vitro findings to an in vivo model, mice were treated with luciferase expressing A549 xenograft tumors with our siRNA-conjugated constructs. Both AXL and FN14 were synergistically targeted using a single construct along with erlotinib and monitored tumor volume reduction by fluorescence imaging (FIG. 48)."}, "AXL": {"system": "AXL", "test": "Protein analysis of mice tumor tissues, AXL", "type": "in vivo", "details": "A549 xenograft, with erlotinib, compared to controls", "protocol": "as §1"}}}
{"substance": "Cetuximab: FDA approved anti-EGFR antibody", "values": [{"measurement": "sensitivity to anti-EGFR antibody", "setting": "H820 and HCC827", "value": "more resistant"}]}
{"substance": "GAb: gelatin nanoparticles conjugated with Cetuximab (anti-EGFR antibody)", "values": [{"measurement": "Zeta (mV)", "setting": "[1]", "value": "−9", "unit": "mV"}]}
{"substance": "GAbsi(AXL,FN14): Cetuximab conjugated gelatin nanoparticles reacted with equal amounts of AXL and FN14 siRNA", "values": [{"measurement": "FN14 expression in tumor tissues", "setting": "FN14", "value": "downregulated"}, {"measurement": "reduction of tumor size", "setting": "[2]", "value": 50, "unit": "%"}, {"measurement": "AXL expression in tumor tissues", "setting": "AXL", "value": "downregulated"}]}
{"substance": "GAbsiAXL: Cetuximab conjugated gelatin nanoparticles with thiol modified AXL siRNA linked via SMCC", "values": [{"measurement": "Zeta (mV)", "setting": "[1]", "value": "−28", "unit": "mV"}]}
